Source: patent publication US20090036474A1, “Quinazoline derivatives for use against cancer” (priority 2004, published 2009)

By UniProt entry, the sequences of proteins in these tests, tags left out. Residues count along the entry.
UniProt P09619, 33-1106 limits assumed: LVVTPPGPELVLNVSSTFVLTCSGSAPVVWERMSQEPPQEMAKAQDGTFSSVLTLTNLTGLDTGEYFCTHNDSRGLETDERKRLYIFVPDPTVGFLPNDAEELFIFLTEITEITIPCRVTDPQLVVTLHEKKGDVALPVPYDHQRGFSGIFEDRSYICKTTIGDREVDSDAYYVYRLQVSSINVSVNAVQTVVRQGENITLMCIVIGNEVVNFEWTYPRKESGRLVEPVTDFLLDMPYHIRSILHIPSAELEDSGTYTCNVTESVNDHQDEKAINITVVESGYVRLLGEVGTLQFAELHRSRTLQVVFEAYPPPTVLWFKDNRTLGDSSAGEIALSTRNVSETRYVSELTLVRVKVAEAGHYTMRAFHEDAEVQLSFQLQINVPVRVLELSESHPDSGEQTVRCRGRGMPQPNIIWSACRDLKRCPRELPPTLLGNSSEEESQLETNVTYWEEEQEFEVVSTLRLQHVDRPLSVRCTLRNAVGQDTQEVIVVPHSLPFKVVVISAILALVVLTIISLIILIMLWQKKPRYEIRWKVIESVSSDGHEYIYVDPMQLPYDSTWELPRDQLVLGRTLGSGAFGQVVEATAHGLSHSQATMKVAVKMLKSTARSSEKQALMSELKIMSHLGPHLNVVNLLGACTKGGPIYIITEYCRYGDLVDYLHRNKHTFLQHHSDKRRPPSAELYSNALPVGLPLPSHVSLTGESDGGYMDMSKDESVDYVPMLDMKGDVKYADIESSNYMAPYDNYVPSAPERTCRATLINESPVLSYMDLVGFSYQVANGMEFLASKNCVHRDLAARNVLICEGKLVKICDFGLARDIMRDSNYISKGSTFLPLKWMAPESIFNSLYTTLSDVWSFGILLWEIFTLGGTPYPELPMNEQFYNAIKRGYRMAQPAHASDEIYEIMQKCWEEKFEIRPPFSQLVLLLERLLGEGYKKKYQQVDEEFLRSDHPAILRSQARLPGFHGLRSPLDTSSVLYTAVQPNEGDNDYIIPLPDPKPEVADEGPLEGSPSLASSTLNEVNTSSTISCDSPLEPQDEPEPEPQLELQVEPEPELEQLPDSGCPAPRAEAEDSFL
UniProt P09619, 554-1106 limits assumed: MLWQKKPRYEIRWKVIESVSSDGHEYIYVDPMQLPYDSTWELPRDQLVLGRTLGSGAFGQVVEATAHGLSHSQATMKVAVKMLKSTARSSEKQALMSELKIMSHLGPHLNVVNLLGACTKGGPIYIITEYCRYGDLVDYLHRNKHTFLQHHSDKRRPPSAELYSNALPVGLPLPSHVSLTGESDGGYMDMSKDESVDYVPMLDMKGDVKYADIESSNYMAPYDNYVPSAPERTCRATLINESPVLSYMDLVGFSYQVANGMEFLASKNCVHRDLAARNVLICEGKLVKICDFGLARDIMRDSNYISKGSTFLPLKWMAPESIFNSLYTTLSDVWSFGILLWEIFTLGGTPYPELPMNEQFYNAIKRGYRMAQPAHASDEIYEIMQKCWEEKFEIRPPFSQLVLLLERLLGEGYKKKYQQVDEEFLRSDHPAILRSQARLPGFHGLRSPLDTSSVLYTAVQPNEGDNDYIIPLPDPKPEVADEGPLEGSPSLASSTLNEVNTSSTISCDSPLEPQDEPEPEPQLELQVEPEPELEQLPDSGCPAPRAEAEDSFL
UniProt P35968, 786-1356 limits assumed: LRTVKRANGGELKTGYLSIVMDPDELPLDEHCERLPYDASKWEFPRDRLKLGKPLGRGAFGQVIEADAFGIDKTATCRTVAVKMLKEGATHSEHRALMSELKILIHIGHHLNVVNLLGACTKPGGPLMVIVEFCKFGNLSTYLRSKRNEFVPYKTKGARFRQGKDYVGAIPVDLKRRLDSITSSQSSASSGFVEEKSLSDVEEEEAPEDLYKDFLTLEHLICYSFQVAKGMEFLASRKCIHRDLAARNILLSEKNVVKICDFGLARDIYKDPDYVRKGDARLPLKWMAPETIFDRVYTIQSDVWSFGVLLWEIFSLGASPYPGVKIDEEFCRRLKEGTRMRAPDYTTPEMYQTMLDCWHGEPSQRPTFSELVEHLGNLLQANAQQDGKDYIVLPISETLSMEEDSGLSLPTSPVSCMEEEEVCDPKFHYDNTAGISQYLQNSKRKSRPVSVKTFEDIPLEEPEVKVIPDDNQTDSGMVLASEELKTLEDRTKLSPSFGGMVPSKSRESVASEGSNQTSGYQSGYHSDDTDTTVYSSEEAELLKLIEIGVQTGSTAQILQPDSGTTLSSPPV
UniProt P16234, 550-1089 limits assumed: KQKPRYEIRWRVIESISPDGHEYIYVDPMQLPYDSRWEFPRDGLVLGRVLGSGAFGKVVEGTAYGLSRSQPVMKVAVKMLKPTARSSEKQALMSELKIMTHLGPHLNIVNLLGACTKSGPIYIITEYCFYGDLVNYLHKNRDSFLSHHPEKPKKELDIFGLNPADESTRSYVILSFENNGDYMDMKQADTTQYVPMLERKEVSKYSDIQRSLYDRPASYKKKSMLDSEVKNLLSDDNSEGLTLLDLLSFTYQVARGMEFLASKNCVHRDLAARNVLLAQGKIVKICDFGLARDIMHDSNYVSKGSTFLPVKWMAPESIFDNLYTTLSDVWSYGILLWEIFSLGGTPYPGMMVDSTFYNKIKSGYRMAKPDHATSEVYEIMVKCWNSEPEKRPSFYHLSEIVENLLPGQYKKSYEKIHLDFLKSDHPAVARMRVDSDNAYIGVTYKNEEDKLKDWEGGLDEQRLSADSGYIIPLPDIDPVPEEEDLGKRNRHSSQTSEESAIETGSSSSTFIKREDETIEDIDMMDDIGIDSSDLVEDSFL

Legend:
[1] = target: phospho-Tyr751 PDGFRβ (Homo sapiens, UniProt P09619); assay: In vitro phospho-Tyr751 PDGFRβ ELISA assay in MG63 osteosarcoma cells, Test (b); settings: read-out: IC50 versus phospho-Tyr751 PDGFRβ, MG63 cells stimulated with PDGFBB
Description: This assay uses a conventional ELISA method to determine the ability of test compounds to inhibit phosphorylation of tyrosine in PDGFRβ.
An MG63 osteosarcoma cell line [American Type Culture Collection (ATCC) CCL 1427] was routinely maintained at 37° C. with 7.5% CO2 in Dulbecco's modified Eagle's growth medium (DMEM; Sigma-Aldrich; Catalogue No. D6546) containing 10% foetal calf serum (FCS; Sigma-Aldrich; Catalogue No. F7524) and 2 mM L-glutamine (Invitrogen Ltd., Paisley, UK; Catalogue No. 25030-024).
For the assay, the cells were detached from the culture flask using a trypsin/ethylenediaminetetraacetic acid (EDTA) mixture (Invitrogen Ltd.; Catalogue No. 15400-054) and resuspended in test media comprising DMEM without phenol red (Sigma-1-Aldrich; Catalogue No. D5921) containing 1% charcoal-stripped-foetal calf serum (FCS) (Sigma-Aldrich; Catalogue No. F7524, stripped by incubation with dextran-coated activated charcoal at 55° C. for 30 minutes with continuous stirring followed by removal of the charcoal by centrifugation and filter sterilisation) and 2 mM L-glutamine (Invitrogen Ltd., Catalogue No. 25030-024) to give 6×10^4 cells per ml. Aliquots (100 μl) were seeded into each of the wells of columns 2-12 (excluding column 1) and rows B-G (excluding rows A and H) of a clear 96 well tissue culture plate (Corning Life Sciences, Koolhovenlaan, The Netherlands; Catalogue No. 3595) to give a density of about 6000 cells per well. Aliquots (100 μl) of culture media were placed in the outer wells to minimise edge effects. The cells were incubated overnight at 37° C. with 7.5% CO2 to allow the cells to adhere to the wells.
Test compounds were prepared as 10 mM stock solutions in DMSO and serially diluted as required with test media to give a range of concentrations. Aliquots (50 μl) of each compound concentration were added to the cells in each well. Control cells received a dilution of DMSO only. The cells were incubated for 90 minutes at 37° C. with 7.5% CO2.
The resultant cells were stimulated with PDGFBB using the following procedure. A lyophilised powder of PDGFBB, (Sigma-Aldrich; Catalogue No. P4306) was mixed with 4 mM aqueous hydrochloric acid containing 0.1% filter-sterilised BSA to provide a stock solution of 10 μg/ml of PDGFBB. A dilution of this stock solution into test medium provided a 200 ng/ml PDGFBB solution. Aliquots thereof (50 μl) were added to compound treated cells and to one set of control wells to give the “maximum” control. The “minimum” controls received media only. The cells were incubated at 37° C. with 7.5% CO2 for 5 minutes. […]

[2] = target: KDR tyrosine kinase (Homo sapiens, UniProt P35968); assay: In vitro enzyme assay (ELISA), Test (a), KDR; settings: read-out: IC50 versus KDR tyrosine kinase, ATP 8 μM
Description: (§1) The ability of test compounds to inhibit the phosphorylation of a tyrosine containing polypeptide substrate by the tyrosine kinase enzymes PDGFRα, PDGFRβ and KDR was assessed using conventional ELISA assays. DNA encoding the PDGFRα, PDGFRβ or KDR receptor cytoplasmic domains may be obtained by total gene synthesis (International Biotechnology Lab., 1987, 5(3), 19-25) or by cloning. The DNA fragments may be expressed in a suitable expression system to obtain polypeptide with tyrosine kinase activity. For example, PDGFRα, PDGFRβ and KDR receptor cytoplasmic domains, obtained by expression of recombinant protein in insect cells, can be shown to display intrinsic tyrosine kinase activity. In the case of the VEGF receptor KDR (Genbank Accession No. L04947), a DNA fragment encoding most of the cytoplasmic domain, commencing with methionine 806 and including the termination codon may be cloned into a baculovirus transplacement vector [for example pAcYM1 (see The Baculovirus Expression System: A Laboratory Guide, L. A. King and R. D. Possee, Chapman and Hall, 1992) or pAc360 or pBlueBacHis (available from Invitrogen Corporation)]. This recombinant construct may be co-transfected into insect cells [for example Spodoptera frugiperda 21(Sf21) or Spodoptera frugiperda 9(Sf9)] with viral DNA (for example Pharmingen BaculoGold) to prepare recombinant baculovirus. Details of the methods for the assembly of recombinant DNA molecules and the preparation and use of recombinant baculovirus can be found in standard texts, for example Sambrook et al., 1989, Molecular cloning—A Laboratory Manual, 2nd edition, Cold Spring Harbour Laboratory Press and O'Reilly et al., 1992, Baculovirus Expression Vectors—A Laboratory Manual, W. H. Freeman and Co, New York).
For expression, Sf9 cells were infected with plaque-pure KDR recombinant virus and harvested 48 hours later. Harvested cells were washed with ice cold phosphate buffered saline solution (PBS) containing 10 mM sodium phosphate pH7.4 buffer, 138 mM sodium chloride and 2.7 mM potassium chloride) and resuspended in ice cold cell diluent comprising 20 mM Hepes pH7.5 buffer, 150 mM sodium chloride, 10% v/v glycerol, 1% v/v Triton X100, 1.5 mM magnesium chloride, 1 mM ethylene glycol-bis(βaminoethyl ether) N,N,N′,N′-tetraacetic acid (EGTA) and 1 mM PMSF (phenylmethylsulphonyl fluoride) [the PMSF is added just before use from a freshly-prepared 100 mM solution in methanol] using 1 ml cell diluent per 10 million cells. The suspension was centrifuged for 10 minutes at 13,000 rpm at 4° C. The supernatant (stock enzyme solution) was removed and stored in aliquots at −70° C.
A substrate solution [100 μl of a 2 μg/ml solution of the poly-amino acid Poly(Glu, Ala, Tyr) 6:3:1 (Sigma-Aldrich Company Ltd., Poole, Dorset; Catalogue No. P3899) in phosphate buffered saline (PBS)] was added to each well of a number of Nunc 96-well MaxiSorp immunoplates (Nunc, Roskilde, Denmark; Catalogue No. 439454) and the plates were sealed and stored at 4° C. for 16 hours. The excess of substrate solution was discarded and the wells were washed in turn with PBS containing 0.05% v/v Tween 20 (PBST; 300 μl/well) and twice with Hepes pH7.4 buffer (50 mM, 300 μl/well) before being blotted dry.
Each test compound was dissolved in DMSO and diluted with a 10% solution of DMSO in distilled water to give a series of dilutions (from 40 μM to 0.0012 μM). Aliquots (25 μl) of each dilution of test compound were transferred to wells in the washed assay plates. […]

[3] = target: PDGFRα tyrosine kinase (Homo sapiens, UniProt P16234); assay: In vitro enzyme assay (ELISA), Test (a), PDGFRα; settings: read-out: IC50 versus PDGFRα tyrosine kinase, ATP 14 μM
Description: as §1, with “Details of the methods for the assembly of recombinant DNA molecules and the preparation and use of recombinant baculovirus can be found in standard texts, for example Sambrook et al., 1989, Molecular cloning—A Laboratory Manual, 2nd edition, Cold Spring Harbour Laboratory Press and O'Reilly et al., 1992, Baculovirus Expression Vectors—A Laboratory Manual, W. H. Freeman and Co, New York).” left out

[4] = target: PDGFRβ tyrosine kinase (Homo sapiens, UniProt P09619); assay: In vitro enzyme assay (ELISA), Test (a), PDGFRβ; settings: read-out: IC50 versus PDGFRβ tyrosine kinase, ATP 2.8 μM
Description: as §1, with “Details of the methods for the assembly of recombinant DNA molecules and the preparation and use of recombinant baculovirus can be found in standard texts, for example Sambrook et al., 1989, Molecular cloning—A Laboratory Manual, 2nd edition, Cold Spring Harbour Laboratory Press and O'Reilly et al., 1992, Baculovirus Expression Vectors—A Laboratory Manual, W. H. Freeman and Co, New York).” left out

IC50 [1] [nM] | IC50 [2] [nM] | IC50 [3] [nM] | IC50 [4] [nM] | SMILES
1 | 35 | – | – | CCOc1cc2ncnc(Oc3cnn(CC(=O)Nc4cccc(CO)c4)c3)c2cc1OC
0.5 | 10 | 170 | 100 | COc1cc2ncnc(Oc3cnn(CC(=O)Nc4ccc(Cl)c(CN(C)C)c4)c3)c2cc1OC
– | 10 | 240 | 50 | COc1cc2ncnc(Oc3cnn(CC(=O)Nc4cc(C)cc(CNC5CC5)c4)c3)c2cc1OC
3 | 25 | – | – | COc1cc2c(Oc3cnn(CC(=O)Nc4cccc5c4OCCO5)c3)ncnc2cc1OCCO
1 | 1 | – | – | COc1cc2ncnc(Oc3cnn(CC(=O)Nc4ccc5c(c4)OCCN5C)c3)c2cc1OC
